Measured values from ChEMBL document CHEMBL5046221, “Identification of Pyrimidine-Based Lead Compounds for Understudied Kinases Implicated in Driving Neurodegeneration” (J Med Chem, 2022).

Sequences of proteins named here, by UniProt entry; tags and fusion partners are left off. A change or cut given only in a name is not applied to a line headed by its entry.
UniProt Q5S007: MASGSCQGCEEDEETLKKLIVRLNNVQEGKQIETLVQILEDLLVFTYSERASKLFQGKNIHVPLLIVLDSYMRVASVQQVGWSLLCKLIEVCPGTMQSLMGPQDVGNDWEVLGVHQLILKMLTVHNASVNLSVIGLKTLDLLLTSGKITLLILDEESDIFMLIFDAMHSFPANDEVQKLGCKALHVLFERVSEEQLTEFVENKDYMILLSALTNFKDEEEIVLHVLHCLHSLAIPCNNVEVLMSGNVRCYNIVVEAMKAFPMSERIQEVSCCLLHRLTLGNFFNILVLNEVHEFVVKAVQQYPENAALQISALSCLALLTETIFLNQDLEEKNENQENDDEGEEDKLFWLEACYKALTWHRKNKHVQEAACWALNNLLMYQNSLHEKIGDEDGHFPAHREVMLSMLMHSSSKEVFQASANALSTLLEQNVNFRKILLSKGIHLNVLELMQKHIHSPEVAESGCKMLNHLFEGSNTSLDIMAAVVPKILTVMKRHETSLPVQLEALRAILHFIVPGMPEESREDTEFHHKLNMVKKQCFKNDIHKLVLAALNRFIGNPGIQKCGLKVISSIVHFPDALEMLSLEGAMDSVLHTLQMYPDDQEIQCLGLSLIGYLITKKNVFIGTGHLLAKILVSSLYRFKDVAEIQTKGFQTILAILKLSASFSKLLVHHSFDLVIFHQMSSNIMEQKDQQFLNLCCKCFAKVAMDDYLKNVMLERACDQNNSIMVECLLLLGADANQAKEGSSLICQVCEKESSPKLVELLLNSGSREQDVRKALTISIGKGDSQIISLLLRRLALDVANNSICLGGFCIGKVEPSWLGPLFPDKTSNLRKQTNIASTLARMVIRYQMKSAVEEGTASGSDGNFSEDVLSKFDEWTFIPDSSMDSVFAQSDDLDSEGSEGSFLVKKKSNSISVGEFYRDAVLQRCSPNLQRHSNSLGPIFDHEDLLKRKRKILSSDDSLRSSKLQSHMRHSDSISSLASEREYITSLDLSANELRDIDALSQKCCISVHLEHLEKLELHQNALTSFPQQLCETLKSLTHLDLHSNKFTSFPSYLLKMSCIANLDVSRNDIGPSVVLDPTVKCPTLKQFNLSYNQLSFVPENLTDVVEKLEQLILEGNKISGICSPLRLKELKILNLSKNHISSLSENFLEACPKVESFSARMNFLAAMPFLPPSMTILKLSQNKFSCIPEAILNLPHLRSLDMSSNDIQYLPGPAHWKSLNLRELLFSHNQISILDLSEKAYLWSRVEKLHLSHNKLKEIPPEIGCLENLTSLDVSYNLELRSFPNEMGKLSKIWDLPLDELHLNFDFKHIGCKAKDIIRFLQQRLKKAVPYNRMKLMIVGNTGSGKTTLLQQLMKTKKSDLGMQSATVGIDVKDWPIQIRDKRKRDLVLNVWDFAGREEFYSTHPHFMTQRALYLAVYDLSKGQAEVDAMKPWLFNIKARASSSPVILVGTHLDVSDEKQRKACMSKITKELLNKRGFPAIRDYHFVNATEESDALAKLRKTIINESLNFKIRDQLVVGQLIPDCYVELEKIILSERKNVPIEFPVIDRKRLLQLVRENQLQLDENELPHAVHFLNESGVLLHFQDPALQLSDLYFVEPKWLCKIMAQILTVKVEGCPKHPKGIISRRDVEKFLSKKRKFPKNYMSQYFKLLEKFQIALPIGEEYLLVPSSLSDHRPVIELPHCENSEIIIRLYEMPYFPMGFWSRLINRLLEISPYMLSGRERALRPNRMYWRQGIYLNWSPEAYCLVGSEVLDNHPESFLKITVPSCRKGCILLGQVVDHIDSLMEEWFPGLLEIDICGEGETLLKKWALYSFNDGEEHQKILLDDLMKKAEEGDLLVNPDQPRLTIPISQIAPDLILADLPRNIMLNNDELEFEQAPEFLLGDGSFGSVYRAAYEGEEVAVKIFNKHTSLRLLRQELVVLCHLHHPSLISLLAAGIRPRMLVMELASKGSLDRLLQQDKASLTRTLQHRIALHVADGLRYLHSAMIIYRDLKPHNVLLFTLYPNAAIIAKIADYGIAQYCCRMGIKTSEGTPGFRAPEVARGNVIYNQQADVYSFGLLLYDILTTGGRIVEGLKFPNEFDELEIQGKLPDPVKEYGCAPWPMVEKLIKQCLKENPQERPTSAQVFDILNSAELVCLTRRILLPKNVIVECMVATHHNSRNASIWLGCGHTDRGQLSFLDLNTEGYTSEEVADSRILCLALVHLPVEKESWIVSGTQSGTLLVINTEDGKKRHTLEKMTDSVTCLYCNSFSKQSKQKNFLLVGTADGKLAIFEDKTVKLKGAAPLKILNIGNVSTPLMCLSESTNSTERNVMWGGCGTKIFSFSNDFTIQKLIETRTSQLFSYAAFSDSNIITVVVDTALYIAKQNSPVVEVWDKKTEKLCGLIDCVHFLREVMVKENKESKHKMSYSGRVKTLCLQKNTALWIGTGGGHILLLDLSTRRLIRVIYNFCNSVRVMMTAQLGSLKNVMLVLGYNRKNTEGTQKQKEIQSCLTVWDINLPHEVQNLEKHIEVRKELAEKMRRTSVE

Assays:
[1] = biological target: T1, Leucine-rich repeat serine/threonine-protein kinase 2 (Homo sapiens, UniProt Q5S007); test: Inhibition of recombinant human LRRK2 (970 to end residues) using RLGRDKYKTLRQIRQ as substrate incubated for 40 mins in presence of [gamma-33P-ATP] by radiometric scintillation assay
Procedure, shortened: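 Eurofins radiometric kinase assay run at ATP equal to Km for each kinase. 9-point dose–response in duplicate gives the IC50.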

[2] = biological target: T1, Leucine-rich repeat serine/threonine-protein kinase 2; test: Inhibition of NanoLuc-fused LRRK2 (unknown origin) expressed in HEK293 cells incubated for 2 hrs by NanoBRET assay; type: cell-based
Procedure, shortened: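 Cellular target engagement by NanoBRET in dose–response, done in singlicate by Carna Biosciences following the manufacturer's protocol. Compounds tested at concentrations up to 10 μM.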

Compound: Cc1nn(CC(F)(F)F)cc1Nc1ncc(Br)c(NCc2ccc(S(N)(=O)=O)cc2)n1
- IC50 [1]: 159 nM
- IC50 [2]: > 10000 nM
